Yeast mating assay B: variants of the scFv Ab-14

The target is the same throughout: PDVDLGDISGINAS, from the HR2 region of SARS-CoV-2 spike.

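The parent was found by panning a naive human phage display library on the peptide. The variants were designed computationally from a first round of random CDR variants and then made and measured. Several design methods are mixed in this list. Affinity was read by AlphaSeq, a pooled yeast mating assay with surface-displayed partners. The frequency of each diploid, read from paired DNA barcodes, reflects how well the two displayed proteins bind. The ratio of observed to expected reads was calibrated, replicate by replicate, on BCL2-family standards whose Kd was known from biolayer interferometry. The assay was run in six technical replicates.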

Each scFv is VH, a (GGGGS)3 linker, VL, as in the parent Ab-14, and differs from it in the CDRs of the heavy chain only.
VH: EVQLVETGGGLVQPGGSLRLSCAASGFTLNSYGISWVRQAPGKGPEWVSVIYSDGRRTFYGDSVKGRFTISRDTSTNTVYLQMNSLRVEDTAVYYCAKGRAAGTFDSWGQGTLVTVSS
VL: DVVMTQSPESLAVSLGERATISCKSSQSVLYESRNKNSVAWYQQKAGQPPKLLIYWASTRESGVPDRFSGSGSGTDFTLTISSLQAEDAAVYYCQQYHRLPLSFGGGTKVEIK

Substitutions are numbered in sequence along the VH above, starting at 1 (not Kabat).
This list holds designs with at most six substitutions.
The Kd shown is the geometric mean over detected replicates; a lower Kd is a better binder.
A pair that was not seen in any replicate is written "nd"; this usually means weak binding, but a binder can also be missed.

- N30E+G61A+S63K: 45 nM (6 of 6 replicates)
- R56M+G61L+D62G+D106L: nd (0 of 6 replicates)
- S31Q+G99H+R100E: 32 nM (1 of 6 replicates)
- T28D+G61A+S63K+A101Q: 1.7 nM (4 of 6 replicates)
- S63D: 91 nM (5 of 6 replicates)
- T28N+A101T+S107V: 45 nM (6 of 6 replicates)
- G26K+T28D+R100W+A101T: 310 pM (6 of 6 replicates)
- T28Q+G61S+R100H+A102G: 75 nM (6 of 6 replicates)
- A101H+S107V: 290 nM (3 of 6 replicates)
- T28E+S63D+A101Q: 4.2 nM (1 of 6 replicates)
- T28Q+S31T: 10 nM (3 of 6 replicates)
- G26Y+N30E+S53A: 40 nM (3 of 6 replicates)
- T28S+S63Q+R100E: 7.2 nM (6 of 6 replicates)
- G61K+K65A: 50 nM (1 of 6 replicates)
- T28D+F59A+S63D+A101T: 890 pM (6 of 6 replicates)
- R56K+G61S+S63N+R100Q: 1.8 nM (6 of 6 replicates)
- G61I+S63T+R100N: 27 nM (5 of 6 replicates)
- S31E+A101Q+S107F: 4.6 nM (6 of 6 replicates)
- T28E+G61S+S63D+R100E: 10 nM (5 of 6 replicates)
- R100F+A101L+A102T: 35 nM (1 of 6 replicates)
- T28D+S31E+S53A+G61I+R100N+A101Q: 590 pM (6 of 6 replicates)
- T28S+G61A+A101T+S107N: 6.7 nM (6 of 6 replicates)
- T28D+N30E+R100K+S107T: 5.9 nM (6 of 6 replicates)
- G26L+T28E+G61A+A101T: 12 nM (6 of 6 replicates)
- T28D+F59M+G61L+R100Q: nd (0 of 6 replicates)
- S53A+A101Y+F105D+D106K: nd (0 of 6 replicates)
- R56V+G61S+R100E: 2.5 nM (6 of 6 replicates)
- T28E+R100G+A101V+S107T: 850 pM (6 of 6 replicates)
- G26L+F59S+R100K: nd (0 of 6 replicates)
- T28S+N30E+S31N: 3.1 nM (6 of 6 replicates)
- T28S+S63K+R100K+A101T: 9.6 nM (4 of 6 replicates)
- T28S+S63D+R100Q+S107T: 1.3 nM (6 of 6 replicates)
- T28V+G61A+R100N: 29 nM (6 of 6 replicates)
- S31Q+G61S+D62W+T104F: nd (0 of 6 replicates)
- S31D+A101I+D106E: 2.5 nM (6 of 12 replicates)
- T28S+S31E+R100N+S107K: 1.3 nM (6 of 6 replicates)
- N30D+S63Y+G99R+G103V+D106V: nd (0 of 6 replicates)
- A101T+D106E+S107V: nd (0 of 6 replicates)
- S31D+R56I: 4.1 nM (6 of 6 replicates)
- T28N+R100K+A101E+S107T: 2.2 nM (6 of 6 replicates)
- T28E+G61A+R100N+S107T: 1.6 nM (6 of 6 replicates)
- T28N+G61V+A101Q+S107A: 30 nM (6 of 6 replicates)
- T28G+S31E+G61D: 6.2 nM (6 of 6 replicates)
- T28S+N30E+A101T: 1.1 nM (6 of 6 replicates)

The first 6 variants above that were never detected:

- R56M+G61L+D62G+D106L -> nd (0 of 6 replicates)
- T28D+F59M+G61L+R100Q -> nd (0 of 6 replicates)
- S53A+A101Y+F105D+D106K -> nd (0 of 6 replicates)
- G26L+F59S+R100K -> nd (0 of 6 replicates)
- S31Q+G61S+D62W+T104F -> nd (0 of 6 replicates)
- N30D+S63Y+G99R+G103V+D106V -> nd (0 of 6 replicates)

A sequence measured in both rounds can read differently, since the two assays cover different ranges.
The authors' rule: three or more of the six replicates give a measured affinity, fewer mean a poor binder.
Empty control strains, which show no peptide, gave a signal in 1% of pairings with all heavy chain designs; the median was 120 nM and 95% of these signals were weaker than 7.0 nM. No background was subtracted.
The parent sequence was in this pool as ten entries: three were never detected, three once, and four in most replicates, with averages from 2.2 nM to 240 nM.
A sequence that the file lists under several names has all its replicates pooled.

Values reported by Li et al. 2023, doi:10.1038/s41467-023-39022-2 (FLAb copy).